In experiment [1] the target is T1, human CD16a F176 variant, biotinylated (human, UniProt P08637 17-208, C-terminally biotinylated).
T1 construct: supplier is told for the AlphaScreen assay only; also called F Variant; FcγRIIIA F variant
The experiment can be described thus: SPR. The method, then: (§1) The SPR analysis was run at 25° C. at a flow rate of 50 μl/min with 60 seconds association and dissociation between 60 and 200 seconds. Data were corrected for DMSO excluded volume effects. All data were double-referenced for blank injections and reference surface using standard processing procedures and data processing and kinetic fitting were performed using Scrubber software, version 2.0c (BioLogic Software). Data were fitted using simple 1:1 binding model allowing for mass transport effects where appropriate.
(§2) For analysis of peptide binding, a Biacore 8k+ instrument was used with a CM5 chip (Cytiva). All experiments were carried out at 25° C. Streptavidin was immobilized on all flow cells by standard amine coupling chemistry. The running buffer was HBS-N(Cytiva, 10 mM HEPES, 0.15 M NaCl, pH 7.4) and the flow rate was 10 μl/min. The carboxymethyl dextran surface was activated with a 1:1 ratio of 0.4 M 1-ethyl-3-(3-dimethylaminopropyl) carbodiimide hydrochloride (EDC)/0.1 M N-hydroxy succinimide (NHS) (Cytiva) for 420s. Streptavidin (ProSpec, cat no. PRO-791) was diluted to 0.2 mg/ml in 10 mM sodium acetate pH 4.5 and was injected onto the chip surface for 600 s. Residual activated groups were blocked with a 420 s injection of 1 M ethanolamine (pH 8.5). The final surface density was 2000-3000 RU. Biotinylated CD16a was diluted to 5 μg/ml in HBS-N and was captured on flow cell 2 only of the streptavidin chip at a flow rate of 10 μl/min to 1500-2500 RU. The buffer was then changed to PBS-P+(Cytiva) supplemented with 0.5-2% DMSO. […] The flow rate was 30 μl/min with 100 s association and 400 s dissociation. Data were corrected for DMSO volume exclusion effects. All data were double-referenced against blank injections and reference surface response using standard processing procedures. Data processing and kinetic fitting was performed using Biacore Insight Evaluation Software with Extended Screening and Characterization Extension (Cytiva). Data were fitted using steady state affinity 1:1 binding model to determine KD. Data were fitted using kinetic 1:1 binding model to determine kinetic constants where appropriate.
(In general: SPR reads the build-up and loss of mass on a sensor chip optically.)

Amino acid sequences for entries named in this document (tags omitted). Residues count along the entry.
UniProt P08637, 17-208 limits assumed, stated change not applied: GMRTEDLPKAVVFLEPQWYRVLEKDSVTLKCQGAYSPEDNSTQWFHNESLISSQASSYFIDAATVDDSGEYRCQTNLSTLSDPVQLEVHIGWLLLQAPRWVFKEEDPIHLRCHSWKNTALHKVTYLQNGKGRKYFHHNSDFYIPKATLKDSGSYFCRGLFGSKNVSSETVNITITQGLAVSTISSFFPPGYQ

Experiment [2] addresses T2, human CD16a V176 variant, biotinylated (human, UniProt P08637 17-208, N-terminally biotinylated in-house).
T2 construct: supplier is told for the AlphaScreen assay only; also called V Variant; FcγRIIIA V variant
The experiment in a line: SPR. Here is the method: as §1, §2

From patent publication US20240108738A1 (Bicycle, published 2024) come the findings set out here.

As to ACRWXFSEPCGAWCA (not fully specified; CiRW[His1Me]FSEPCiiGAWCiii, scaffold TBMT) [BCY20373], the figures for the Kd in experiment [1] and in experiment [2] were 2700 nM and 1020 nM, respectively.

Turning to ACRXSVEDPCGAWCA (not fully specified; CiR[AzaTrp]SVEDPCiiGAWCiii, scaffold TBMT) [BCY19055], the affinity in experiment [2], expressed as Kd, was 6960 nM.

With ACRWXFSEPCGAWCA (not fully specified; CiRW[His3Me]FSEPCiiGAWCiii, scaffold TBMT) [BCY20374], the Kd in experiment [1] stood at 958 nM; in experiment [2], 799 nM.

The Kd is the free concentration of one partner at which half of the binding sites on the other are occupied at equilibrium, for simple one-to-one binding. A lower Kd goes with tighter binding.
